Data taken from patent publication EP0755938B1, “Ligated polyoxometalates and method for their synthesis” (THE B.F. GOODRICH COMPANY, priority 1995, dated 1997).

Assay: Solubility test in hexane (Table 1)
Assay type: physicochemical
Conditions: result in words
Protocol: The ligated polyoxometalates of Examples 1-18 were tested for solubility in hexane, together with the organoammonium octamolybdate utilized as a control.

[(C13H27)2NH2]4{(C6H5P)2Mo5O21} [Example 6]
Hexane soluble: soluble
